PubChem BioAssay (EPA / NIEHS)
Only a part is listed here, and it is no random draw. Active and inactive are the calls of the source. How the source made its calls: active means hit-call score of the fitted dose curve at least 0.9, where 1 is the maximum; inactive means score below 0.9.

Sequences of proteins named here, by UniProt entry; tags and fusion partners are left off.
UniProt P19838, whole entry: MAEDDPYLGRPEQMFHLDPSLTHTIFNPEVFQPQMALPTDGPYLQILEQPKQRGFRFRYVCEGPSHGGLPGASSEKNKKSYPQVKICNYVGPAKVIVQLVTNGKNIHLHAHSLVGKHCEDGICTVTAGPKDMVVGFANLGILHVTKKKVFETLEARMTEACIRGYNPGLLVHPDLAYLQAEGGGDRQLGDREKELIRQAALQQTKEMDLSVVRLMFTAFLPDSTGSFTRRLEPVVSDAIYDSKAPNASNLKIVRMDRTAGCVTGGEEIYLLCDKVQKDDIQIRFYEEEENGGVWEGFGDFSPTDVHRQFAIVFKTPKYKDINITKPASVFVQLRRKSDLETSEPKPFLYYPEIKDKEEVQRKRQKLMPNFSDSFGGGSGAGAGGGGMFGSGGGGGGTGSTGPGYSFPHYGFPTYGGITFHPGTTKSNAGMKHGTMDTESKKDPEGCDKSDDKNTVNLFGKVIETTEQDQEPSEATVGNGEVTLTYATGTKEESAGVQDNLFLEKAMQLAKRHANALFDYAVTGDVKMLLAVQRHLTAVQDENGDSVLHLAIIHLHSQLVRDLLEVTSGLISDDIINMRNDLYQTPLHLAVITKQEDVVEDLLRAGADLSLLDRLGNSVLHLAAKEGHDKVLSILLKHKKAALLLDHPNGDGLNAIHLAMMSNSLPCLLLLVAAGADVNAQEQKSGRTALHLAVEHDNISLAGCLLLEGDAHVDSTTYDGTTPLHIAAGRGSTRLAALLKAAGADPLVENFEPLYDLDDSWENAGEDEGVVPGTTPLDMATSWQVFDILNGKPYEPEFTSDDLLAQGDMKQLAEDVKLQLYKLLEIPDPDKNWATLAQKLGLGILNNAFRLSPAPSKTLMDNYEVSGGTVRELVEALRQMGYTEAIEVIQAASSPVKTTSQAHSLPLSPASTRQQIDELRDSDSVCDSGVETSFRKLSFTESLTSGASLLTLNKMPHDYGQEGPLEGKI

Tests used:
Conditions in all cases: actives raise or lower the signal; mRNA level, 48 h
[1] = read-out: Lipoprotein lipase (LPL), LPL (gene 4023); experiment: LTEA_HepaRG_LPL: Life Technologies and Expression Analysis (LTEA) Assay for Lipoprotein lipase (LPL) using HepaRG (AID 2283515)
Summary of the method: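 HepaRG, 48 h exposure, 8-pt half-log dilutions from 100 uM, 0.5% DMSO vehicle, duplicates; qRT-PCR (Fluidigm array) of LPL mRNA vs housekeeping genes; bidirectional curve fit relative to DMSO baseline.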

[2] = read-out: MicroRNA 122 (MIR122), gene 406906; experiment: LTEA_HepaRG_MIR122: Life Technologies and Expression Analysis (LTEA) Assay for MicroRNA 122 (MIR122) using HepaRG (AID 2283516); further: the transcript read is the microRNA miR-122
Description: (§1) LTEA_HepaRG is a cell based, multiplexed-readout assay that uses HepaRG, a human liver cell line, with measurements taken at 48 hours after chemical dosing on a 96-well plate.LTEA_HepaRG_MIR122 is one of 102 assay component(s) measured in the LTEA HepaRG cell culture assay. It is a marker of MicroRNA.Data from the assay component LTEA_HepaRG_MIR122 was analyzed into 1 endpoint. This assay endpoint, LTEA_HepaRG_MIR122, was analyzed with bidirectional fitting relative to DMSO as the negative control and baseline of activity. Using a type of inducible reporter, measures of mRNA induction for gain or loss-of-signal activity can be used to understand regulation of transcription factor activity. To generalize the intended target to other relatable targets, this assay endpoint is annotated to the microrna intended target family, where the subfamily is post-transcriptional regulation.
(§2) A total of 1060 chemcials from the ToxCast library were tested in eight-point concentration-response experiments. Cell culture and cytotoxicity assays were conducted at Thermo Fisher Scientific's Custom Services facility (Madison, WI). […] Fluidigm's 96.96 Dynamic ArrayTM (Fluidigm, Amsterdam, the Netherlands) technology was used for gene expression analyses by quantitative reverse transcription polymerase chain reaction (qRT-PCR, performed by Quintiles/Expression Analysis, Durham, NC)89. […]

[3] = read-out: matrix metalloproteinase-10 (MMP10), MMP10 (gene 4319); experiment: LTEA_HepaRG_MMP10: Life Technologies and Expression Analysis (LTEA) Assay for matrix metalloproteinase-10 (MMP10) using HepaRG (AID 2283517)
Summary of the method: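 Transcript levels come from Fluidigm qRT-PCR normalized to three housekeeping genes, with curves fitted bidirectionally against 0.5% DMSO. Human HepaRG cells were dosed for 48 hours at concentrations up to 100 uM.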

MYC, MYC (gene 4609) = experiment: LTEA_HepaRG_MYC: Life Technologies and Expression Analysis (LTEA) Assay for MYC using HepaRG (AID 2283518)
Summary of the method: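 HepaRG, ~100,000 cells/well, collagen I; 48 h plating; serum-free induction medium; 48 h dosing, duplicate, 100 uM top, half-log, 0.5% DMSO; total RNA → qRT-PCR MYC; gain/loss fit vs DMSO.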

[4] = read-out: matrix metalloproteinase-3 (MMP3), MMP3 (gene 4314); experiment: LTEA_HepaRG_MMP3: Life Technologies and Expression Analysis (LTEA) Assay for matrix metalloproteinase-3 (MMP3) using HepaRG (AID 2283519)
Summary of the method: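 qRT-PCR read-out of MMP3 mRNA (normalised to three housekeeping genes) in HepaRG liver cells after 48 h chemical exposure; 8-point half-log series, top 100 uM, 0.5% DMSO vehicle. Bidirectional curve fitting against DMSO baseline.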

[5] = read-out: Paternally Expressed 10 (PEG10), PEG10 (gene 23089); experiment: LTEA_HepaRG_PEG10: Life Technologies and Expression Analysis (LTEA) Assay for Paternally Expressed 10 (PEG10) using HepaRG (AID 2283520)
Description: as §1, with “plate.LTEA_HepaRG_PEG10” for “plate.LTEA_HepaRG_MIR122”, “Cell proliferation, survival, death.Data” for “MicroRNA.Data”, “LTEA_HepaRG_PEG10” for “LTEA_HepaRG_MIR122”, “LTEA_HepaRG_PEG10,” for “LTEA_HepaRG_MIR122,”, “dna binding” for “microrna”, “xenobiotic metabolism.” for “post-transcriptional regulation.”
as §2

[6] = read-out: Nuclear factor NF-kappa-B p105 subunit (Homo sapiens) (UniProt P19838); experiment: LTEA_HepaRG_NFKB1: Life Technologies and Expression Analysis (LTEA) Assay for Nuclear Factor Kappa B Subunit 1 (NFKB1) using HepaRG (AID 2283521);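 further: differentiated human HepaRG liver cells in serum-free induction medium; TaqMan qRT-PCR transcript normalised to ACTB GAPDH and POLR2A housekeeping genes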
Summary of the method: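 NFKB1 transcript was measured by TaqMan qRT-PCR on Fluidigm arrays, normalised to three housekeeping genes and fitted in both directions against 0.5% DMSO. HepaRG cells were dosed in duplicate for 48 h in serum-free induction medium, eight half-log steps from 100 uM.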

[7] = read-out: Protein phosphatase 2A (PPP2R4), PTPA (gene 5524); experiment: LTEA_HepaRG_PPP2R4: Life Technologies and Expression Analysis (LTEA) Assay for Protein phosphatase 2A (PPP2R4) using HepaRG (AID 2283522)
Summary of the method: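 HepaRG, 48 h exposure, 8-pt half-log series from 100 uM, 0.5% DMSO vehicle, duplicates. Readout: PPP2R4 mRNA, Fluidigm qRT-PCR, housekeeping-normalized. Bidirectional curve fit vs DMSO baseline.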

[8] = read-out: Phosphatase and tensin (PTEN), PTEN (gene 5728); experiment: LTEA_HepaRG_PTEN: Life Technologies and Expression Analysis (LTEA) Assay for Phosphatase and tensin (PTEN) using HepaRG (AID 2283523)
Summary of the method: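 HepaRG, 48 h exposure, 8-pt half-log series from 100 uM top, 0.5% DMSO vehicle, duplicates. Readout: Fluidigm qRT-PCR of PTEN transcript; housekeeping normalization (ACTB, GAPDH, POLR2A). Gain or loss fitted relative to DMSO baseline.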

[9] = read-out: solute carrier (SLC22A1), SLC22A1 (gene 6580); experiment: LTEA_HepaRG_SLC22A1: Life Technologies and Expression Analysis (LTEA) Assay for solute carrier (SLC22A1) using HepaRG (AID 2283524)
Description: as §1, with “plate.LTEA_HepaRG_SLC22A1” for “plate.LTEA_HepaRG_MIR122”, “NR mediated transport.Data” for “MicroRNA.Data”, “LTEA_HepaRG_SLC22A1” for “LTEA_HepaRG_MIR122”, “LTEA_HepaRG_SLC22A1,” for “LTEA_HepaRG_MIR122,”, “transporter” for “microrna”, “organic cation transporter.” for “post-transcriptional regulation.”
as §2

Measured: outcome

O=[N+]([O-])c1ccccc1[N+](=O)[O-]
inactive: all assays above
